Experiment: Ratio of kobs in H2O to the kobs in D2O was determined

Compound: CP(=O)(OCC(=O)c1ccccc1)Oc1ccc([N+](=O)[O-])cc1 (stereo unspecified)
- Ratio: 1.2

— ChEMBL document CHEMBL1126390, “Reversible modulation of serine protease activity by phosphonate esters” (1992)
